Source: PubChem
TDP1 cell CPT: DT40-hTDP1 cell growth loss with CPT; chicken DT40 Tdp1-/-;hTDP1 cells + 20 nM CPT, ATP luminescence, 48 h; Potency, µM (top dose mostly 46.2 µM), without a hit: top-dose activity change, negative = growth inhibition, usual class: inhibitors; actives 12% (n = 420,000); further: potency means the concentration at half of the fitted maximal effect; on the % scale 0 is the no-effect control and ±100 the full control effect; nearly all actives have a fitted effect of over 55% in size
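Chicken DT40 Tdp1-/- cells complemented with human TDP1, 400 cells/well, exposed to compounds plus 20 nM camptothecin for at least 48 h at 37 C; viability read as ATP content by CellTiter-Glo luminescence.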
DT40 TDP1 no CPT: qHTS for Inhibitors of human tyrosyl-DNA phosphodiesterase 1 (TDP1): qHTS in cells in absence of CPT; DT40 Tdp1-/- hTDP1 cells, no CPT, ATP luminescence, 48 h; Potency, µM (highest dose often 46.2 µM), for inactives: top-dose activity change, negative = growth inhibition, actives largely listed as inhibitors; actives 15% (n = 420,000); further: potency means the concentration at half of the fitted maximal effect; on the % scale 0 is the no-effect control and ±100 the full control effect; nearly all actives have a fitted effect of over 55% in size
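Camptothecin absent (DMSO only). Human TDP1-complemented DT40 knockout cells, 400 cells/well, 37 °C for minimum 48 hr; ATP measured via CellTiter-Glo, 30 min dark incubation, luminescence.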
miR-21 reporter: raises the signal of a miR-21 reporter; AID 2288; 340,000 tested, under 10 active; Potency, µM (doses to about 38.3 µM), inactives show at the top dose reporter change, positive = more light; HeLa miR-21 FLuc reporter, luciferase, 48 h; active = well fitted rising curve with a large enough effect; inconclusive = small, poorly fitted or top-dose-only effect; inactive = no such curve, though single readings can be large or run the other way;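 note: % of control where 0% means no effect; miR-21 action dims this reporter so a rising signal means less miR-21 action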
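HeLa miR-21-FLuc reporter line, endogenous miR-21; 2000 cells/well in DMEM/10% FBS; compound titration up to ~40uM final, 48 h, 37 degree Celsius; luciferase detection reagent, 15 min lysis, CCD luminescence.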
TDP1 inh: blocks human tyrosyl-DNA phosphodiesterase 1; Q9NUW8; recombinant TDP1, AlphaScreen DNA substrate cleavage; Potency, µM (highest dose often 130 µM), inactives show at the top dose activity change, negative = inhibition, actives largely listed as inhibitors; actives 0.28% (n = 350,000); AID 485290; further: potency means the concentration at half of the fitted maximal effect; on the % scale 0 is the no-effect control and ±100 the full control effect; nearly all actives have a fitted effect of over 40% in size
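E. coli-derived human Tdp1, 1 nM final. Cpd preinc 15 min RT; substrate 15 nM final, 5 min RT; AS bead mix 10 ug/ml final, 10 min RT. Signal loss = tyrosine-FITC cleavage. No-enzyme wells = max signal.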
uPA generation: blocks generation of uPA at the cell surface. cell surface uPA generation assay, qHTS. Potency, µM (highest dose often 38.3 µM), inactives show top-dose activity change, negative = inhibition, usual class: inhibitors. actives 0.31% (n = 330,000). AID 540303; active means well fitted inhibition curve with a large enough effect; inconclusive means small, poorly fitted or top-dose-only effect; inactive means no such curve, though single readings can be large or run the other way; tested in mouse RAW 264.7 cells; further: potency means the concentration at half of the fitted maximal effect; on the % scale 0 is the no-effect control and ±100 the full control effect; nearly all actives have a fitted effect of over 55% in size
Numbers without * were called inactive; ? = inconclusive; . = no result; [ ] = remark or other dose. Sampled rows, rich in hits. Any-hit rate of the full collection: about 16%. Unless noted, the call rests on the fitted dose curve; in most records, active means well fitted curve in the direction sought with a large enough effect; inconclusive means small, poorly fitted or top-dose-only effect, or another doubt; inactive means no such curve, though single readings can be large; an effect the other way counts as inactive or inconclusive.

SMILES	TDP1 cell CPT	DT40 TDP1 no CPT	miR-21 reporter	TDP1 inh	uPA generation
CCCCn1c(SCc2nnc(-c3ccccc3)o2)nc2c1c(=O)n(C)c(=O)n2C	15µM*	10µM*	-12%	8%	-10%
CCN(CC)c1nc2c(c(=O)[nH]c(=O)n2C)n1CCCc1ccccc1	?	10µM*	2%	7%	-3%
CCCCn1c(CN(Cc2ccccc2)Cc2ccccc2)nc2c1c(=O)n(C)c(=O)n2C	13µM*	18µM*	.	.	10%
CN(C)CCOC(=O)CC12CC3CC(C1)CC(CC(=O)OCCN(C)C)(C3)C2	-27%	?	0%	-3%	12%
S=C(NCC1CCCO1)N1CCN(Cc2ccccc2Cl)CC1 (stereo not given)	?	?	-5%	-5%	10%
CC(O)CSc1nc2c(c(=O)n(C)c(=O)n2C)n1CCCc1ccccc1 (stereo not given)	?	?	0%	.	-2%
CCN(CC)c1nc2c(c(=O)n(C)c(=O)n2C)n1CCCc1ccccc1	21µM*	23µM*	5%	.	-1%
CCCc1cc(=O)[nH]c(SCC(=O)Nc2ncc(S(=O)(=O)c3ccc([N+](=O)[O-])cc3)s2)n1	?	?	1%	2%	-8%
O=C1CC(c2ccccc2)Cc2nc(N3CCc4ccccc4C3)ncc21 (stereo not given)	?	?	-7%	-3%	3%
COc1ccc(C2CC(=O)c3cnc(N4CCN(Cc5ccccc5)CC4)nc3C2)cc1 (stereo not given)	?	23µM*	2%	0%	-1%
CCc1ccc(Nc2ncc3c(n2)CC(c2ccc(OC)cc2)CC3=O)cc1 (stereo not given)	?	16µM*	-10%	3%	3%
Cc1ccc(C2CC(=O)c3cnc(N4CCc5ccccc5C4)nc3C2)cc1 (stereo not given)	?	18µM*	-9%	3%	3%
COc1cccc(C(=O)Nc2ncc3c(n2)CC(c2ccc(OC)cc2OC)CC3=O)c1 (stereo not given)	2.9µM*	4.1µM*	17%	5%	.
Cc1ccccc1NC(=O)Cn1cc(C(=O)c2ccco2)c2ccccc21	?	?	2%	0%	.
COc1ccc(CN2CCC[C@]3(N[C@H](c4ccc(OC)cc4)[C@@H]4C(=O)N(C)C(=O)[C@@H]43)C2=O)cc1	7%	4%	.	.	.
CCN1CCN(c2ncc3c(n2)CC(c2ccc(OC)c(OC)c2)CC3=O)CC1 (stereo not given)	23µM*	15µM*	19%	3%	.
CCOC(=O)N1CCN(c2ncc3c(n2)CC(c2ccc(OC)c(OC)c2)CC3=O)CC1 (stereo not given)	.	.	18%	1%	.
O=C1CC(c2ccc(F)cc2)Cc2nc(N3CCN(c4ccccc4)CC3)ncc21 (stereo not given)	?	?	0%	5%	-2%
Cc1ccc(C2CC(=O)c3cnc(N4CCN(c5ccccc5)CC4)nc3C2)cc1 (stereo not given)	?	16µM*	-3%	3%	-2%
COc1cc(OC)c(C(=O)N(Cc2ccco2)Cc2cccs2)cc1OC	.	.	.	3%	.
CC(C)(C)c1ccc(OCCNC(=O)c2ncn[nH]2)cc1	-18%	-23%	-13%	7%	9%
CC(C)[C@H](NC(=O)C1(c2ccccc2)CCN(C(=O)OC(C)(C)C)CC1)C(=O)O	-19%	5%	-8%	2%	.
Nc1ccc(N=Nc2ccc(O)cc2)c(N)n1	21µM*	15µM*	.	.	-7%
N#Cc1c(/N=C/c2cc3ccccc3s2)sc2c1CCC2	?	23µM*	-34%	1%[56.1 µM]	-1%
O=c1nc(/C=C/c2cc([N+](=O)[O-])ccc2Cl)cc(C(F)(F)F)[nH]1	?	23µM*	1%	4%	-7%
O=S(=O)(c1ccccc1)N1c2cc(Cl)ccc2Oc2nc3ccccc3nc21	?	10µM*	-37%	2%	-2%
O=c1c(N2CCc3ccccc3C2)csc2ccc(Br)cc12	23µM*	?	-11%	7%	.
CN(Cc1ccccc1F)c1cc2c(c3c1ccn3C)C1CCC2C1 (stereo not given)	?	23µM*	.	.	.
Cn1ccc2c(-c3ccccc3F)cc3c(c21)C1CCC3C1 (stereo not given)	-7%	-12%	.	.	.
C/C(Cl)=C/Cc1c(C)[nH]c2ccc(C)cc2c1=O	-20%	-29%	-41%	1%	1%
C/C(Cl)=C/Cc1c(C)[nH]c2c(ccc3ccccc32)c1=O	?	23µM*	4%	.	12%
CC1CN(C(=O)CCNC(=O)c2ccccc2Cl)CC(C)O1 (stereo not given)	2%	14%	-1%	1%	0%
CC(C)C[C@H]1CN=C(Nc2ccccc2)N1CC1CCCC1	?	16µM*	4%	.	-14%
CC(C)C[C@H]1CN=C(Nc2ccccc2)N1CC1CCC(C(C)(C)C)CC1 (stereo not given in full)	5.8µM*	6.5µM*	.	1%	-26%
CC(C)C[C@H]1CN=C(Nc2ccccc2)N1CCC1CCCCC1	?	16µM*	17%	.	-22%
CC(C)C[C@H]1CN=C(Nc2ccccc2)N1CC(C)C	-26%	-24%	.	-3%	-6%
c1ccc(C[C@H]2CN=C(Nc3ccccc3)N2CCC2CCCC2)cc1	?	15µM*	.	-1%	-25%
CC(C)CC(=O)NC(=S)Nc1ccc(Cl)cn1	?	?	-51%	5%	-1%
CC(=O)Nc1c(C)nn(-c2ccccc2)c1N1CCC(C(=O)Nc2ccc(C)cc2Cl)CC1	?	?	-5%	3%	.
CCOC(=O)N1CCN(C(=O)C2CCCN(Cc3nc(-c4ccc(Cl)cc4)oc3C)C2)CC1 (stereo not given)	9.2µM*	5.8µM*	27%	3%	?

Three of the compounds above, as a markdown table.
| SMILES | TDP1 cell CPT | DT40 TDP1 no CPT | miR-21 reporter | TDP1 inh | uPA generation |
| --- | --- | --- | --- | --- | --- |
| C/C(Cl)=C/Cc1c(C)[nH]c2ccc(C)cc2c1=O | -20% | -29% | -41% | 1% | 1% |
| C/C(Cl)=C/Cc1c(C)[nH]c2c(ccc3ccccc32)c1=O | ? | 23µM* | 4% | . | 12% |
| CC1CN(C(=O)CCNC(=O)c2ccccc2Cl)CC(C)O1 (stereo not given) | 2% | 14% | -1% | 1% | 0% |

(next part)
SMILES	TDP1 cell CPT	DT40 TDP1 no CPT	miR-21 reporter	TDP1 inh	uPA generation
CCc1ccc(-c2nc(CN3CCCC(C(=O)N4CCN(c5cc(Cl)ccc5C)CC4)C3)c(C)o2)cc1 (stereo not given)	6.5µM*	3.3µM*	25%	8%	.
Cc1ccc(Cl)cc1N1CCN(C(=O)C2CCCN(Cc3nc(-c4cccc(Cl)c4)oc3C)C2)CC1 (stereo not given)	?	?	14%	10%	.
Cc1oc(-c2ccc(F)cc2)nc1CN1CCCC(C(=O)N2CCOCC2)C1 (stereo not given)	-27%	-2%	-1%	.	-3%
Cc1nc2ccc([N+](=O)[O-])cc2c(=O)n1Cc1ccccc1Br	-2%	-19%	-2%	6%	9%
COc1ccc(/C=C2/NC(=O)N(Cc3ccccc3F)C2=O)cc1OC	?	?	0%	5%	8%

As a working copy, some entries already given.
SMILES	TDP1 cell CPT	DT40 TDP1 no CPT	miR-21 reporter	TDP1 inh	uPA generation
Cc1oc(-c2ccc(F)cc2)nc1CN1CCCC(C(=O)N2CCOCC2)C1 (stereo not given)	-27%	-2%	-1%	.	-3%
Cc1nc2ccc([N+](=O)[O-])cc2c(=O)n1Cc1ccccc1Br	-2%	-19%	-2%	6%	9%
COc1ccc(/C=C2/NC(=O)N(Cc3ccccc3F)C2=O)cc1OC	?	?	0%	5%	8%
